From PubChem BioAssay AID2237 (Johns Hopkins Ion Channel Center, 2010)
The entries are a selection whose mix differs from that of the whole data set. Activity calls are given as the source filed them.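 The calls were made as follows: active = B-score above 5 SD of library B-scores, and initial fluorescence ratio not above library mean plus 5 SD; inactive = the rest.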

Amino acid sequences for entries named in this document (tags omitted).
UniProt Q9QUQ5, whole entry: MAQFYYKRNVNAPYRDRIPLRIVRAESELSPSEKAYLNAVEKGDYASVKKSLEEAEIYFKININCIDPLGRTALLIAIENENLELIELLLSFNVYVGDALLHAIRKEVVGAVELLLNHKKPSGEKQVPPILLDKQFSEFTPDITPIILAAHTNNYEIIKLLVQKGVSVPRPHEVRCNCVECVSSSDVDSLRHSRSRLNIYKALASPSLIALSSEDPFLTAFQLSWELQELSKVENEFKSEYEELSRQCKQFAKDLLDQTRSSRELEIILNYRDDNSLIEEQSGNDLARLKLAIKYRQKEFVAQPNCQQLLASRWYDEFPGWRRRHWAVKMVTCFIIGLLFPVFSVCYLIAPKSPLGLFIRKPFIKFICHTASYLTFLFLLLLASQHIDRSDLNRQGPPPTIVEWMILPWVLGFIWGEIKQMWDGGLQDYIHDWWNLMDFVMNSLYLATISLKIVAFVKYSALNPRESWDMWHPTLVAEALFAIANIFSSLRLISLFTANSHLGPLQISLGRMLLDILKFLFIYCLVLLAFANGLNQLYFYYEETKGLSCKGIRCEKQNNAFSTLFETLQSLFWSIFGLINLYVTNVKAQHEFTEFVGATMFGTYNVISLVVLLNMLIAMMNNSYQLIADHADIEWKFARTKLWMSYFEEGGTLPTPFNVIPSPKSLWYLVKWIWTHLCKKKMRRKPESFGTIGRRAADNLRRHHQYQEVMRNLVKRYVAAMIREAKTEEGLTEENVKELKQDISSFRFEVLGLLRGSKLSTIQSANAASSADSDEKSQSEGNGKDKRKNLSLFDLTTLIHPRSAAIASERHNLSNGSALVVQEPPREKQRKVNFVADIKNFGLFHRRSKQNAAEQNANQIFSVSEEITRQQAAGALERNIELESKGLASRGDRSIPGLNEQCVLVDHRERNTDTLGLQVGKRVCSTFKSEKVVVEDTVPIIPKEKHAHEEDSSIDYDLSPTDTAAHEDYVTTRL

Each molecule was assayed against Short transient receptor potential channel 4 (Mus musculus) (UniProt Q9QUQ5) (assay: TRPC4 cation channel opening, calcium rise – Fluo4 calcium, HEK293 TRPC4beta/mu-opioid cells, primary screen (AID 2237)). Details: Fluo4 calcium fluorescence, at 10 µM.
For `COc1cc(OC)cc(C(=O)NCC2(N3CCCCC3)CCCCC2)c1`, the outcome was “inactive”. With `Fc1ccccc1NC1CCN(Cc2ccccc2)CC1` the outcome was “inactive”. In the case of `Cc1ccc(C(=O)NCC2(N3CCCCC3)CCCCC2)o1`, the outcome is reported as “inactive”. In the case of `CCN1CCC(Nc2cccc(F)c2)CC1`, the outcome is reported as “inactive”. In the case of `CN(C)c1ccc(C(=O)NCC2(N3CCCCC3)CCCCC2)cc1`, the outcome is reported as “inactive”. For `CN1CCC(Nc2ccc(F)c(Cl)c2)CC1`, the outcome was “inactive”. For `CCOc1ncccc1C(=O)NCC1(N2CCOCC2)CCCCC1`, the outcome was “inactive”. In the case of `O=C(O)C1(Nc2ccccc2)CCN(Cc2ccccc2)CC1`, the outcome is reported as “inactive”. In the case of `CC(C)(C)OC(=O)N1CCC(Nc2ccccc2)CC1`, the outcome is reported as “inactive”. In the case of `CCCOc1ccc(C(=O)NCC2(N(C)C)CCCCC2)cc1`, the outcome is reported as “inactive”. With `COc1cccc(C(=O)N(c2cc(C)cc(C)c2)C2CCN(C(=O)OC(C)(C)C)CC2)c1` the outcome was “inactive”. With `COc1cc(OC)cc(C(=O)NCC2(N3CCOCC3)CCCCC2)c1` the outcome was “inactive”. With `CCC(CO)(C(=O)OC1CN2CCC1CC2)c1ccccc1` (centres undefined) the outcome was “inactive”. For `CN1CCC(Nc2ccc(Cl)cc2)CC1`, the outcome was “inactive”. With `CCCOc1ccc(C)cc1CN(CCCl)CCCl` the outcome was “inactive”. In the case of `COc1ccc(C(=O)NCC2(N3CCOCC3)CCCCC2)cc1OC`, the outcome is reported as “inactive”. For `CCOC(=O)N1CCC(Nc2ccc(C)cc2)CC1`, the outcome was “inactive”. With `N/C(=N\O)c1c(N)no[n+]1[O-]` the outcome was “inactive”. For `O=C(OC1CN2CCC1CC2)C1c2ccccc2C=Cc2ccccc21` (centres undefined), the outcome was “inactive”. In the case of `CCc1cc(C(=O)NCC2(N3CCCCC3)CCCCC2)sc1C`, the outcome is reported as “inactive”. `N#Cc1ccc(C(=O)NCC2(N3CCCCC3)CCCCC2)cc1` was tested, and the outcome was “inactive”. With `CC(C)(C)OC(=O)N1CCC(N(C(=O)c2ccccc2)c2ccc(Cl)cc2)CC1` the outcome was “inactive”. With `CN(C)C1(CNC(=O)c2cccc(C#N)c2)CCCCC1` the outcome was “inactive”. `CCCN1CCC(Nc2cc(OC)cc(OC)c2)CC1` was tested, and the outcome was “inactive”. In the case of `c1ccc(CN2CCC(Nc3ccccc3)CC2)cc1`, the outcome is reported as “inactive”. For `O=C(NCC1(N2CCCCC2)CCCCC1)c1ccc(OC(F)F)cc1`, the outcome was “inactive”. `N#CC1(Nc2ccccc2)CCN(CCc2ccccc2)CC1` was tested, and the outcome was “inactive”. For `CCN1CCC(Nc2ccc(Cl)cc2)CC1`, the outcome was “inactive”. With `O=C(NCC1(N2CCCCC2)CCCCC1)c1cccc([N+](=O)[O-])c1` the outcome was “inactive”. `O=C(NCC1(N2CCCCC2)CCCCC1)c1cccc(C(F)(F)F)c1` was tested, and the outcome was “inactive”. With `O=C(NCC1(N2CCOCC2)CCCCC1)c1cc(=O)[nH]c2ccccc12` the outcome was “inactive”. `COc1cc(C(=O)NCC2(N3CCCCC3)CCCCC2)ccc1OC(F)F` was tested, and the outcome was “inactive”. In the case of `COc1ccc(NC2CCN(C(=O)OC(C)(C)C)CC2)cc1`, the outcome is reported as “inactive”. In the case of `CN1CCN(CCOC(=O)C(O)(c2ccccc2)c2ccccc2)CC1`, the outcome is reported as “inactive”. With `CC(C)c1ccc(NC2CCN(C(=O)OC(C)(C)C)CC2)cc1` the outcome was “inactive”. `CN(C)c1cccc(C(=O)NCC2(N3CCCCC3)CCCCC2)c1` was tested, and the outcome was “inactive”. In the case of `COc1ccc(CN(CCCl)CCCl)cc1Cl`, the outcome is reported as “inactive”. With `COc1cc(OC)c(C(=O)NCC2(N(C)C)CCCCC2)cc1OC` the outcome was “inactive”. For `CN1CCC(Nc2cccc(F)c2)CC1`, the outcome was “inactive”. For `CCCOc1ccc(C(=O)NCC2(N(C)C)CCCCC2)cc1OC`, the outcome was “inactive”. `COc1ccc(C(=O)NCC2(N3CCCCC3)CCCCC2)c(OC)c1OC` was tested, and the outcome was “inactive”. In the case of `CC(C)(C)OC(=O)N1CCC(N(C(=O)c2ccccc2)c2ccc(F)cc2)CC1`, the outcome is reported as “inactive”. In the case of `COc1ccc(C(=O)NCC2(N3CCCCC3)CCCCC2)cc1`, the outcome is reported as “inactive”. In the case of `O=C(NCC1(N2CCCCC2)CCCCC1)c1cccs1`, the outcome is reported as “inactive”. With `O=C(NCC1(N2CCCCC2)CCCCC1)c1ccc(=O)[nH]c1` the outcome was “inactive”. With `CSc1ccccc1C(=O)NCC1(N2CCCCC2)CCCCC1` the outcome was “inactive”. `Cc1cc(C)cc(N(C(=O)c2ccccc2)C2CCN(C(=O)OC(C)(C)C)CC2)c1` was tested, and the outcome was “inactive”. For `O=C(NCC1(N2CCCCC2)CCCCC1)c1ccc(Cl)nc1`, the outcome was “inactive”. `O=C(NCC1(N2CCOCC2)CCCCC1)c1cc2ccccc2o1` was tested, and the outcome was “inactive”. `O=C(OC1CN2CCC1CC2)C1c2ccccc2Oc2ccccc21` (centres undefined) was tested, and the outcome was “inactive”. In the case of `N#CC1(Nc2ccccc2)CCN(Cc2ccccc2)CC1`, the outcome is reported as “inactive”. In the case of `CCOC(=O)N1CCC(Nc2ccc(OC)cc2)CC1`, the outcome is reported as “inactive”. With `CCOc1ccc(C)cc1CN(CCCl)CCCl` the outcome was “inactive”. With `CCOC(=O)N1CCC(Nc2ccc(F)cc2)CC1` the outcome was “inactive”. `COc1ccc(NC2CCN(CCc3ccccc3)CC2)c(OC)c1` was tested, and the outcome was “inactive”. For `O=C(NCC1(N2CCCCC2)CCCCC1)c1ccc(F)cc1`, the outcome was “inactive”. For `Cc1ccc(OCC(C)C)c(CN(CCCl)CCCl)c1`, the outcome was “inactive”. `COc1cc(C(=O)NCC2(N(C)C)CCCCC2)ccc1OC(F)F` was tested, and the outcome was “inactive”. `CCOC(=O)N1CCC(Nc2cccc(C)c2)CC1` was tested, and the outcome was “inactive”.
